# Values quoted from earlier work in patent publication US20250281570A1 (UCB BIOPHARMA SRL, priority 2022, published 2025).
# B1: eculizumab (antibody, chains of the INN, looked up)
# heavy: QVQLVQSGAEVKKPGASVKVSCKASGYIFSNYWIQWVRQAPGQGLEWMGEILPGSGSTEYTENFKDRVTMTRDTSTSTVYMELSSLRSEDTAVYYCARYFFGSSPNWYFDVWGQGTLVTVSSASTKGPSVFPLAPCSRSTSESTAALGCLVKDYFPEPVTVSWNSGALTSGVHTFPAVLQSSGLYSLSSVVTVPSSNFGTQTYTCNVDHKPSNTKVDKTVERKCCVECPPCPAPPVAGPSVFLFPPKPKDTLMISRTPEVTCVVVDVSQEDPEVQFNWYVDGVEVHNAKTKPREEQFNSTYRVVSVLTVLHQDWLNGKEYKCKVSNKGLPSSIEKTISKAKGQPREPQVYTLPPSQEEMTKNQVSLTCLVKGFYPSDIAVEWESNGQPENNYKTTPPVLDSDGSFFLYSRLTVDKSRWQEGNVFSCSVMHEALHNHYTQKSLSLSLG
# light: DIQMTQSPSSLSASVGDRVTITCGASENIYGALNWYQQKPGKAPKLLIYGATNLADGVPSRFSGSGSGTDFTLTISSLQPEDFATYYCQNVLNTPLTFGQGTKVEIKRTVAAPSVFIFPPSDEQLKSGTASVVCLLNNFYPREAKVQWKVDNALQSGNSQESVTEQDSKDSTYSLSSTLTLSKADYEKHKVYACEVTHQGLSSPVTKSFNRGEC
# What was measured:
# [1] = tested on: AChR autoantibody-positive patients with refractory gMG
# [2] = tested on: AChR autoantibody-positive patients with refractory gMG; remark: listed apart in the source
# [3] = Eculizumab 1200 mg, Week 26, REGAIN
# [4] = REGAIN and open-label extension
molecule,measurement,setting,value
B1,time to impact on QMG score after initiating treatment,[1]; in vivo,≤ 1 week
same,responding patients achieving an 8-point reduction in QMG score,[1]; initial 16-week treatment period,4
same,patients achieving ≥3-point improvement in QMG score,"[1]; initial 16-week treatment period, 600 mg per week for 4 weeks then 900 mg every other week IV",6 out of 7
same,"primary endpoint, change from baseline in MG-ADL relative to placebo","[2]; 26-week treatment period, 900 mg per week for 4 weeks then 1200 mg every other week IV, p=0.0698",not associated with a statistically significant benefit relative to placebo
same,"secondary endpoint, change from baseline in QMG score relative to placebo","[2]; 26-week treatment period, p=0.0129",statistically significant
same,MG-ADL LS mean difference vs placebo (CI),[2]; [3],"−1.8 (−3.2, −0.5); 0.0077"
same,MGC LS mean difference vs placebo (CI),[2]; [3],"−3.3 (−5.9, −0.6); 0.0168"
same,QMG LS mean difference vs placebo (CI),[2]; [3],"−2.9 (−4.6, −1.2); 0.0007"
same,MG-ADL late responders (response achieved between Week 12 and end of OLE),[2]; [4],17%
same,MG-ADL non responders,[2]; [4],15%
same,QMG late responders (response achieved between Week 12 and end of OLE),[2]; [4],15%
same,QMG non responders,[2]; [4],29%
